Laboratory results published in patent publication US11292791B2.

These compounds were tested against BRD4 (Homo sapiens (Human), UniProt O60885) (assay: HTRF biochemical assay for BRD4 activity). Conditions: read-out: BRD4 IC50 (μM gmean).

| SMILES | IC50 [µM] |
| --- | --- |
| COC(=O)N1c2ccc3c(nc(Nc4ccn(CC(C)(C)O)n4)n3[C@H]3CC[C@H](C(=O)O)CC3)c2CC[C@@H]1C | 1 to 1000 |
| COC(=O)N1c2ccc3c(nc(Nc4cccc(F)c4)n3[C@H]3CC[C@H](C(=O)O)CC3)c2CC[C@@H]1C | 0.1 to 1 |
| COC(=O)N1c2ccc3c(nc(Nc4ccc(F)c(F)c4)n3[C@@H]3CCC[C@@H](C(=O)O)C3)c2CC[C@@H]1C | 0.1 to 1 |

Same assay, conditions: read-out: BRD4 IC50 (μM gmean), HTRF (TR-FRET) biochemical assay

| SMILES | IC50 [µM] |
| --- | --- |
| COC(=O)N1c2ccc3c(nc(Cn4ccccc4=O)n3CCN3CCOCC3)c2CC[C@@H]1C | 1 to 1000 |
| COC(=O)N1c2ccc3c(nc(Cn4cccn4)n3CCN3CCOCC3)c2CC[C@@H]1C | 1 to 1000 |

Same assay, conditions: read-out: BRD4 IC50 (μM gmean), HTRF TR-FRET

| SMILES | IC50 [µM] |
| --- | --- |
| COC(=O)N1c2ccc3c(nc(Cc4ccc(Cl)cc4)n3[C@@H]3CCC[C@@H](C(=O)O)C3)c2CC[C@@H]1C | 1 to 1000 |
| COC(=O)N1c2ccc3c(nc(Cc4cc(F)c(OC)c(F)c4)n3[C@H]3CC[C@H](C(=O)O)CC3)c2CC[C@@H]1C | 1 to 1000 |
| COC(=O)N1c2ccc3c(nc(Cc4cncc(OC(F)F)c4)n3[C@@H]3CCC[C@@H](C(=O)O)C3)c2CC[C@@H]1C | 1 to 1000 |
| COC(=O)N1c2ccc3c(nc(C(O)c4cc5ccoc5cn4)n3C3CCCC(C(=O)O)C3)c2CC[C@@H]1C (some centres unmarked) | 0.1 to 1 |
| COC(=O)N1c2ccc3c(nc(N(C)c4ccc(OC)cc4)n3[C@H]3CC[C@H](C(=O)O)CC3)c2CC[C@@H]1C | 0.1 to 1 |
| COC(=O)N1c2ccc3c(nc(N(C)c4cccc(F)c4)n3[C@@H]3CCC[C@@H](C(=O)O)C3)c2CC[C@@H]1C | 0.1 to 1 |
